Measured affinities in a library of Ab-91 heavy chain variants

Binding partner: SARS-CoV-2 spike HR2 peptide, sequence PDVDLGDISGINAS.

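The starting antibody came from a phage panning campaign against this peptide. Variants in AAYL51 differ from the parent at up to three CDR positions; double and triple changes were sampled at random. AlphaSeq pools MATa yeast showing the antibodies with MATalpha yeast showing the peptide. Binding brings cells together so that they mate, and sequencing counts the barcode pairs among the diploids. The ratio of observed to expected reads was calibrated, replicate by replicate, on BCL2-family standards whose Kd was known from biolayer interferometry. Each pool was mated in three replicate cultures.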

Each scFv is VL, the linker GGGGSGGGGSGGGGS, VH, as in the parent Ab-91, and differs from it in the CDRs of the heavy chain only.
VL: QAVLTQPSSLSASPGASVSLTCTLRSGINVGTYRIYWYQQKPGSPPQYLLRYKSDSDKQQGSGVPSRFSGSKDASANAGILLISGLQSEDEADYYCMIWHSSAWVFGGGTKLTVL
VH: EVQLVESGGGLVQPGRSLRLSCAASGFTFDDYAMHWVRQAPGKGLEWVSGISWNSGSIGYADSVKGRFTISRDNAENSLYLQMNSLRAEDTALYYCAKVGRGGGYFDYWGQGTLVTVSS

Each variant is given by its three heavy chain CDRs, as the data file delimits them; those of the parent are GFTFDDYAMH, GISWNSGSIGYADSVK, VGRGGGYFDY.
All variants listed here change F106 of the VH, counted from its first residue.
Each Kd is an estimate from the mating assay, the geometric mean of the replicates in which the pair was seen; lower is stronger.
"nd" marks a missing value. The strain was present, yet no cells mated with the target were sequenced in any replicate, which points to weak or no binding.
Order: sorted from the lowest average up, undetected variants last.
As a blank, each scFv also met three strains without target: over library AAYL51, 21% of these pairings were detected, typically at 34 µM and seldom below 1.8 µM. The control count says in how many pairings with the empty strains this scFv gave a signal.

Variant GFTFDDYAMH / GISWNSGSIGYVDSVK / VGRGGGYTHY showed 110 nM (3 of 3 replicates; controls 1 of 9). With GFTFDDYAMH / GISWNSGSIGYADSMK / VGRGGTYWDY the result was 150 nM (3 of 3 replicates; controls 3 of 9). Variant GFTFDDYAMH / GISWNSGSIGYADSVK / VGRGGGYWDY showed 300 nM (3 of 3 replicates; controls 0 of 9). For GFTFDDYAMP / GISWNSGSIGYADSVK / VGRGGGYVCY, the assay gave 1.2 µM (3 of 3 replicates; controls 0 of 9). For GFTFDDYAMH / GISWNIGSIGYADSVK / VGRGGGYCGY, the assay gave 1.9 µM (2 of 3 replicates; controls 0 of 9). For GFTFDDYAMH / GISWNSGSIGYCDGVK / VGRGGGYNDY, the assay gave 2.1 µM (3 of 3 replicates; controls 5 of 9). Variant GFTFDDYAMH / GISWNSGRIGYADSVK / VGRGGGYRDY gave 3.8 µM (1 of 3 replicates; controls 4 of 9).

Variant GFTFDDYAMH / GIVWNSGSIGYADSVK / VFRGGGYHDY gave 4.8 µM (1 of 3 replicates; controls 0 of 9). For GDTFDDYAMH / GISWNSGSIGYADTVK / VGRGGGYEDY, the assay gave 4.9 µM (2 of 3 replicates; controls 1 of 9). Variant GFTFDDYAMH / GISWNSGSIGYADSVK / VGRGGGYLDY gave 6.7 µM (3 of 3 replicates; controls 3 of 9). Variant GFNFDDYAMH / GTSWNSGSIGYADSVK / VGRGGGYPDY gave 7.6 µM (2 of 3 replicates; controls 4 of 9). Variant GFTFDDYAMH / GISWNSGSIRYADSVK / VGRWGGYTDY gave 9.7 µM (1 of 3 replicates; controls 4 of 9). For WFTFDDYAMH / GISWNSGSIGYADPVK / VGRGGGYGDY, the assay gave 10 µM (1 of 3 replicates; controls 3 of 9). Variant GFTFDDGAMH / GISWNSGSIGYADSVK / VGRGGGYTDY gave 11 µM (1 of 3 replicates; controls 2 of 9).

Variant GFTFDDYAMH / GISWNSGSIGYAGSVK / VGRQGGYEDY gave 16 µM (3 of 3 replicates; controls 7 of 9). With GFTFDDYLMH / GISWNSGSIGYADSVK / VGRGGGYQDA the result was 17 µM (1 of 3 replicates; controls 4 of 9). With AFTFDDYAMY / GISWNSGSIGYADSVK / VGRGGGYYDY the result was 28 µM (3 of 3 replicates; controls 8 of 9). For GFTFDDYAMH / GSSWNSGSIGYADSVK / VMRGGGYKDY, the assay gave 29 µM (1 of 3 replicates; controls 1 of 9). Variant GFTFDDYAMH / GISWNSGFIGYADSVK / DGRGGGYEDY showed 35 µM (2 of 3 replicates; controls 1 of 9). For GFTFDDYAMH / GIGWNSGSIGYAKSVK / VGRGGGYQDY, the assay gave 36 µM (1 of 3 replicates; controls 5 of 9). For GFTNDDYAMH / GISWNMGSIGYADSVK / VGRGGGYADY, the assay gave 42 µM (1 of 3 replicates; controls 3 of 9).

Variant GFTFHDYAMH / GNSWNSGSIGYADSVK / VGRGGGYCDY showed 49 µM (1 of 3 replicates; controls 1 of 9). Variant GFTFDDCSMH / GISWNSGSIGYADSVK / VGRGGGYYDY showed 61 µM (1 of 3 replicates; controls 3 of 9). For GFTFDDYADH / GISWNSGSIGYADSVK / VGRGGIYIDY, the assay gave 72 µM (2 of 3 replicates; controls 5 of 9). For EFTFDDYAMH / GISWNSGSIGYADSVK / VGRGGGYRDY, the assay gave 84 µM (1 of 3 replicates; controls 2 of 9). With GLTFDDYAMH / GISWNSGSIGYADSVK / VGNGGGYADY the result was 140 µM (3 of 3 replicates; controls 2 of 9). For GFTFDDYAMH / GISWNSGTIGYADSVK / VSRGGGYMDY, the assay gave 180 µM (1 of 3 replicates; controls 2 of 9). For GFTFDDYAMN / GISWNSGSIGYADSVK / VGRGGGWDDY, the assay gave 270 µM (2 of 3 replicates; controls 3 of 9).

Variant GFTFDDYAMH / GISWNSGSIGYADSVK / TGRGGGYTDY gave 670 µM (1 of 3 replicates; controls 2 of 9). For GFTFDDYAMH / GISWNCGSIGYADSVK / PGRGGGYMDY, the assay gave 1.8 mM (1 of 3 replicates; controls 4 of 9). For GFTFDDYAMH / GISWNSGSIGYADSVK / VGRGGHMQDY, the assay gave 2.1 mM (1 of 3 replicates; controls 3 of 9). Variant GFTSDDYACH / GISWNSGSIGYADSVK / VGRGGGYNDY showed nd (0 of 3 replicates; controls 3 of 9). For GFTFDDTAMH / GISWNSGSIGYADSVK / VGRGGGYLDY, the assay gave nd (0 of 3 replicates; controls 0 of 9). Variant GFTFDDYAMH / GISWNSGSGGYTDSVK / VGRGGGYMDY showed nd (0 of 3 replicates; controls 2 of 9). With GDTFDDYAMH / GISWNSGSIGYADSVK / VGRGGGYTDY the result was nd (0 of 3 replicates; controls 4 of 9).

Variant GFWFDDYAMH / GIFWNSGSIGYADSVK / VGRGGGYCDY gave nd (0 of 3 replicates; controls 0 of 9). With GFTFDDYAMH / GISWNSGIIGYADSVK / VGRGGGYDKY the result was nd (0 of 3 replicates; controls 3 of 9). With GFHFDDYAMH / GISWNSGSIGYADMVK / VGRGGGYDDY the result was nd (0 of 3 replicates; controls 4 of 9). With GFTFDDYAMH / GISWNSGSIYYADSLK / VGRGGGYVDY the result was nd (0 of 3 replicates; controls 0 of 9). Variant GFAFDDYAMH / GISENSGSIGYADSVK / VGRGGGYIDY showed nd (0 of 3 replicates; controls 0 of 9). With GFTFDDYAMH / GISWNSGYIGYADSKK / VGRGGGYQDY the result was nd (0 of 3 replicates; controls 0 of 9). For GFTFDDYAMH / GISWNWGSINYADSVK / VGRGGGYCDY, the assay gave nd (0 of 3 replicates; controls 3 of 9).

For GFRFDDYAMH / GISWNSGSIGYCDSVK / VGRGGGYDDY, the assay gave nd (0 of 3 replicates; controls 0 of 9). For GFLFDDYAMH / GISWNSGSIGYADSVK / VGYGGGYGDY, the assay gave nd (0 of 3 replicates; controls 0 of 9). Variant NFTFDDYAFH / GISWNSGSIGYADSVK / VGRGGGYSDY showed nd (0 of 3 replicates; controls 0 of 9). With GFTADDYAMH / GISWNSGSIGQADSVK / VGRGGGYYDY the result was nd (0 of 3 replicates; controls 0 of 9). Variant AFTFDDYAMH / GISWNSGSIHYADSVK / VGRGGGYTDY showed nd (0 of 3 replicates; controls 0 of 9). With GFTFWDYAMW / GISWNSGSIGYADSVK / VGRGGGYVDY the result was nd (0 of 3 replicates; controls 1 of 9). Variant GFTFDDYAMF / GISWNSGSIGYADGVK / VGRGGGYHDY gave nd (0 of 3 replicates; controls 0 of 9).

For GFTFDDYAMH / MISWNSGSIGYADSVK / VGRGGGYTDY, the assay gave nd (0 of 3 replicates; controls 1 of 9).

Top 7 of the variants detected in all replicates, tightest first:

| CDR-H1 | CDR-H2 | CDR-H3 | Kd (apparent) | seen in | empty controls |
|---|---|---|---|---|---|
| GFTFDDYAMH | GISWNSGSIGYVDSVK | VGRGGGYTHY | 110 nM | 3/3 | 1/9 |
| GFTFDDYAMH | GISWNSGSIGYADSMK | VGRGGTYWDY | 150 nM | 3/3 | 3/9 |
| GFTFDDYAMH | GISWNSGSIGYADSVK | VGRGGGYWDY | 300 nM | 3/3 | 0/9 |
| GFTFDDYAMP | GISWNSGSIGYADSVK | VGRGGGYVCY | 1.2 µM | 3/3 | 0/9 |
| GFTFDDYAMH | GISWNSGSIGYCDGVK | VGRGGGYNDY | 2.1 µM | 3/3 | 5/9 |
| GFTFDDYAMH | GISWNSGSIGYADSVK | VGRGGGYLDY | 6.7 µM | 3/3 | 3/9 |
| GFTFDDYAMH | GISWNSGSIGYAGSVK | VGRQGGYEDY | 16 µM | 3/3 | 7/9 |

The measurements come from Engelhart et al. 2022 (doi:10.1038/s41597-022-01779-4) through the FLAb antibody collection.